Test results reported in patent US6583125B2 (priority 1992, dated 2003).

Legend:
rats = details: rat, in vivo
[1] = human, in vivo; cited from earlier work

CO[C@@]12[C@H](COC(N)=O)C3=C(C(=O)C(C)=C(N)C3=O)N1C[C@@H]1N[C@@H]12 [mitomycin-c]
Lesion Diameter (rats): 0.95 cm
lesion size (rats): 1.45 cm
Frequency of Phlebitis [1]: Frequent
